Results on two compounds are retold here after publication PMC11266321 (EJNMMI Radiopharmacy and Chemistry, 2024).

Protein sequences, listed by entry. Tags and fused reporters are not part of them.
UniProt P21728, whole entry: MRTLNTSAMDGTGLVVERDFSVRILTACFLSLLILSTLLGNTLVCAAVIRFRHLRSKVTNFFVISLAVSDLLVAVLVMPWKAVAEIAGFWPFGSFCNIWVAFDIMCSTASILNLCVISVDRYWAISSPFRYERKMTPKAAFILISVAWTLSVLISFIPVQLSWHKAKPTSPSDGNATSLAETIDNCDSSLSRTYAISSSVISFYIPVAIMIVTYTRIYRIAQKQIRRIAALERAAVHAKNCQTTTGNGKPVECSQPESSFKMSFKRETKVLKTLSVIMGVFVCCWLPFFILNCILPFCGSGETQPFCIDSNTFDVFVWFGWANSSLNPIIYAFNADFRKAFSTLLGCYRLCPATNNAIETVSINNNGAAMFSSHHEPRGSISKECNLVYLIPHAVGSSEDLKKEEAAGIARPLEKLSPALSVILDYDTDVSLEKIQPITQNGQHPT
UniProt P30542, whole entry: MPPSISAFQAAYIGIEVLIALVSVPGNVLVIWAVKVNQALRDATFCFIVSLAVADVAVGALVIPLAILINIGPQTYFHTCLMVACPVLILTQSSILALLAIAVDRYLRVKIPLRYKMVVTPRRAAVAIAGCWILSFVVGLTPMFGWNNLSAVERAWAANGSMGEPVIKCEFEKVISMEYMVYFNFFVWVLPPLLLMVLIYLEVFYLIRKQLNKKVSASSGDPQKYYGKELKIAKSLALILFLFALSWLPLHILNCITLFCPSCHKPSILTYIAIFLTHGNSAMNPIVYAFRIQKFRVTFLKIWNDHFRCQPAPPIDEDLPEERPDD

One experiment addresses T1, Dopamine D1 (Homo sapiens, UniProt P21728).
T1 construct: Sekisui Medical (contract laboratory)
Description: Radioligand binding inhibition, Dopamine D1. Particulars: 10 µM; radioligand [^3H]SCH23390; mean of duplicate. The procedure: (§1) Interaction of MMP with 28 binding sites was examined, including major classes of neurotransmitter receptor, uptake system, and ion channels (Sekisui Medical, Naka, Japan). MMP was tested in all assays at 10 µM. […] 10.2.3 (GraphPad Software, San Diego, CA). Each determination was made in duplicate.
(§2) Test substance concentration : 10 µM, positive substance concentration : 10 µM
(§3) Data are expressed as the mean values of duplicate samples.
(§4) The % inhibition was calculated from “100 – binding ratio”.
(§5) Binding ratio: [(B - N) / (B0 - N)] × 100 (%)
(§6) B: Bound radioactivity in the presence of test substance and positive substance (individual value)
(§7) B0: Total bound radioactivity in the absence of test substance and positive substance (mean value)
(§8) N: Non-specific bound radioactivity (mean value)

The target of the next experiment is T2, Adenosine A1 (Homo sapiens, UniProt P30542).
T2 construct: Sekisui Medical (contract laboratory)
As to the kind of experiment: Radioligand binding inhibition, Adenosine A1. The settings on record: 10 µM; radioligand [^3H]DPCPX; mean of duplicate. The procedure: as §1, §2, §3, §4, §5, §6, §7, §8

On to `CN1CCc2cc(Cl)c(O)cc2[C@@H](c2ccccc2)C1` [R(+)-SCH-23390, reference compound], for which the “Inhibition ratio (%)” value at Dopamine D1 came to 98.17%.
Regarding `CCCn1c(=O)c2[nH]c(C3CCCC3)nc2n(CCC)c1=O` [DPCPX, reference compound], the “Inhibition ratio (%)” value on Adenosine A1 is on record as 98.97%.
